In ChEMBL document CHEMBL4265983, “Discovery and biological evaluation of thiobarbituric derivatives as potent p300/CBP inhibitors” (Bioorg Med Chem, 2018):

Key:
Type in all cases: functional, cell-based
RS4-11 = experiment: Antiproliferative activity against human RS4:11 cells after 72 hrs by CellTiter-Glo assay
MV4-11 = experiment: Antiproliferative activity against human MV4-11 cells after 72 hrs by CellTiter-Glo assay
CCRF-CEM = experiment: Antiproliferative activity against human CEM cells after 72 hrs by CellTiter-Glo assay
THP-1 = experiment: Antiproliferative activity against human THP1 cells after 72 hrs by CellTiter-Glo assay
Kasumi 1 = experiment: Antiproliferative activity against human Kasumi-1 cells after 72 hrs by CellTiter-Glo assay
MOLT-4 = experiment: Antiproliferative activity against human MOLT4 cells after 72 hrs by CellTiter-Glo assay
Jurkat = experiment: Antiproliferative activity against human Jurkat cells after 72 hrs by CellTiter-Glo assay
K562 = experiment: Antiproliferative activity against human K562 cells after 72 hrs by CellTiter-Glo assay
KOPN-8 = experiment: Antiproliferative activity against human KOPN8 cells after 72 hrs by CellTiter-Glo assay
MOLT-3 = experiment: Antiproliferative activity against human MOLT3 cells after 72 hrs by CellTiter-Glo assay

Measured: Activity

Cc1ccc(N2C(=O)/C(=C\C=C\c3ccco3)C(=O)NC2=S)cc1Cl
active: RS4-11 = Dose-dependent effect | MV4-11 = Dose-dependent effect | CCRF-CEM Dose-dependent effect | THP-1 = Dose-dependent effect | Kasumi 1 = Dose-dependent effect | MOLT-4 = Dose-dependent effect | Jurkat Dose-dependent effect | K562 = Dose-dependent effect | KOPN-8 = Dose-dependent effect | MOLT-3 = Dose-dependent effect
